As a reminder, the IC50 is the concentration that gives 50% inhibition. The low end stands for higher potency, the high end for lower potency.

This is an account of results in BindingDB's records for doi:10.1038/nchembio.2209 (Dana-Farber Cancer Institute, 2016).

Molecules are shown by their SMILES.

The target of the experiment is T1, Bromodomain-containing protein 4 [44-168] (Human, UniProt O60885).
T1 construct: 44-168
Description: AlphaScreen BRD Binding Assay. As to conditions: pH 7.5; 25 °C. On the technique in general: Bead proximity is the source of the signal in Alpha formats.

Compound `Cc1sc2c(c1C)C(c1ccc(Cl)cc1)=N[C@@H](CC(=O)NCCOCCNC(=O)C[C@H]1N=C(c3ccc(Cl)cc3)c3c(sc(C)c3C)-n3c(C)nnc31)c1nnc(C)n1-2` [(6S+6S)-PEG1 (4)] had an IC50 of 158 nM.
